# In patent publication US12312328B2, “Pyrazoline dihydroquinolones, pharmaceutical compositions, and uses” (Emory University, priority 2013, dated 2025):
# Chains of the proteins cited; added tags and fusions are not shown. Residues count along the entry.
# UniProt Q62645, 28-1323: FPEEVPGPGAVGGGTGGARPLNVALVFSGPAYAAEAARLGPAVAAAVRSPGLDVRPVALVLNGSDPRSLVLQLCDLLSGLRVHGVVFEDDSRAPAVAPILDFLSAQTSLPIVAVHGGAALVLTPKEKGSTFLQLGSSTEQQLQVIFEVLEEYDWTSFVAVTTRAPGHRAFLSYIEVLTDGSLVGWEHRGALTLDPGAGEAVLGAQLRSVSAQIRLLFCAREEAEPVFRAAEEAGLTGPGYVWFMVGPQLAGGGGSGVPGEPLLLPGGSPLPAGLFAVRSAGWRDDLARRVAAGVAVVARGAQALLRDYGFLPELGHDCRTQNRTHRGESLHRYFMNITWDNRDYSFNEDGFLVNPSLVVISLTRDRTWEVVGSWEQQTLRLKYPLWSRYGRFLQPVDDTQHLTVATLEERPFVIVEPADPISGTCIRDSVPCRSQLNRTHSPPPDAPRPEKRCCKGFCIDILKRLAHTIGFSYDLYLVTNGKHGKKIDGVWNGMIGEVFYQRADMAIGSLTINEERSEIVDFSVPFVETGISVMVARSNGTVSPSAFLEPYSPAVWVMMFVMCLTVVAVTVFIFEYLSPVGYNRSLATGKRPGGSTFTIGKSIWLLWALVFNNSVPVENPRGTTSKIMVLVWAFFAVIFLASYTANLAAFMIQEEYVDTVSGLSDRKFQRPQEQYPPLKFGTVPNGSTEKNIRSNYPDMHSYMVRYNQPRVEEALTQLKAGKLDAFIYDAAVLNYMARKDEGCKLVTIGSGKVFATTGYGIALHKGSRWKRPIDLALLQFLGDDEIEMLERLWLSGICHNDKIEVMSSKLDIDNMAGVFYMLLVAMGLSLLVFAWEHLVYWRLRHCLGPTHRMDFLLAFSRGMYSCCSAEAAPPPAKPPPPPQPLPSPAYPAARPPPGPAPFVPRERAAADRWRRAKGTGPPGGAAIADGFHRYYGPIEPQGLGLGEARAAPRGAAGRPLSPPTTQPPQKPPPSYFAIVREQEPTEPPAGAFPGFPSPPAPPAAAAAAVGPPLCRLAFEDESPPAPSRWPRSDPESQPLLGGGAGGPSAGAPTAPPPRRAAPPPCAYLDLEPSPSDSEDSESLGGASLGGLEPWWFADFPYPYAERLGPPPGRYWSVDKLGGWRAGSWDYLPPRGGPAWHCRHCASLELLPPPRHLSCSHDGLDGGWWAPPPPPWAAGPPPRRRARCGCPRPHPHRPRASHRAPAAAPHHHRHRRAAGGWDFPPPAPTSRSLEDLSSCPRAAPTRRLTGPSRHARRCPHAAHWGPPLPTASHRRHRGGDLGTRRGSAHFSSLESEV
# Molecular target: GluN1/GluN2D receptors (Rattus norvegicus, UniProt P35439+Q62645)
# Assay: Whole-cell patch clamp recordings of GluN1/GluN2D receptors expressed in HEK293 cells
# Type: cell-based
smiles,measurement,setting,value
"O=C(O)/C=C/C(=O)N1N=C(c2c(-c3ccc(Br)cc3)c3ccccc3[nH]c2=O)CC1c1ccc(Cl)cc1 (racemic) [Compound 997-33, (E)-4-(3-(4-(4-Bromophenyl)-2-oxo-1,2-dihydroquinolin-3-yl)-5-(4-chlorophenyl)-4,5-dihydro-1H-pyrazol-1-yl)-4-oxobut-2-enoic acid]",kon,"onset of inhibition, read-out: association rate kON",123000 M⁻¹ s⁻¹
same,koff,"y-intercept of linear regression, read-out: dissociation rate kOFF",0.122 s⁻¹
